Experimental data: ChEMBL document CHEMBL1136804, “Adenosine kinase inhibitors. 3. Synthesis, SAR, and antiinflammatory activity of a series of l-lyxofuranosyl nucleosides” (J Med Chem, 2003)

Target: Adenosine kinase (Homo sapiens, UniProt P55263)
Experiment: Inhibition of adenosine kinase

IC50: 1.5 nM
SMILES: C[C@H]1O[C@@H](n2cc(-c3ccccc3)c3c(Nc4ccc(F)cc4)ncnc32)[C@H](O)[C@@H]1O (single isomer, unassigned)
